The values below come from ChEMBL document CHEMBL1933028, “Discovery of cyclic amine-substituted benzoic acids as PPARα agonists” (Bioorg Med Chem Lett, 2012).

Test [1] is described as follows: Selectivity ratio of EC50 for hamster PPARalpha to EC50 for human PPARalpha.
Test [2] in a line: Selectivity ratio of EC50 for dog PPARalpha to EC50 for human PPARalpha.
Test [3] can be described thus: Selectivity ratio of EC50 for mouse PPARalpha to EC50 for human PPARalpha.
A short description of test [4]: Selectivity ratio of EC50 for rat PPARalpha to EC50 for human PPARalpha.
The species entered for test [5] is Homo sapiens. Briefly: Selectivity ratio of EC50 for human PPARdelta to EC50 for human PPARalpha.
For test [6], the species on record is Homo sapiens. Description: Selectivity ratio of EC50 for human PPARgamma to EC50 for human PPARalpha.

Structures are written as SMILES. Bounds are passed on as bounds.

For `Cc1nc(-c2ccc(Cl)cc2)sc1C(=O)N[C@H]1CCCN(c2cccc(C(=O)O)c2)C1`, the Ratio EC50 in test [1] is 80; in test [2], 2; in test [3], 600; in test [4], 450.

On to `Cc1nc(-c2ccc(Cl)cc2)sc1C(=O)NC1CCCN(c2cccc(C(=O)O)c2)C1` (stereo unspecified), for which the Ratio EC50 in the test filed under Homo sapiens [5] and in the test filed under Homo sapiens [6] was over 800 throughout.
